pIC50: −log10 of the molar value.

The chains behind the UniProt entries cited, without tags or fusion partners. Residues count along the entry.
UniProt O60674, 849-1124: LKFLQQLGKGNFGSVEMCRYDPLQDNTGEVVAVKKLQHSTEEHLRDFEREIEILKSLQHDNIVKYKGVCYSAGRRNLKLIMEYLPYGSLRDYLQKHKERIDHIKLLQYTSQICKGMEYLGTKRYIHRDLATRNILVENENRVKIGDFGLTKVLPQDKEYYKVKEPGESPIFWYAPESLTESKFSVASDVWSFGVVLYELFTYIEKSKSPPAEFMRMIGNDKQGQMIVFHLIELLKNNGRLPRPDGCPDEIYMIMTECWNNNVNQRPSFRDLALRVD
UniProt P23458, 875-1153: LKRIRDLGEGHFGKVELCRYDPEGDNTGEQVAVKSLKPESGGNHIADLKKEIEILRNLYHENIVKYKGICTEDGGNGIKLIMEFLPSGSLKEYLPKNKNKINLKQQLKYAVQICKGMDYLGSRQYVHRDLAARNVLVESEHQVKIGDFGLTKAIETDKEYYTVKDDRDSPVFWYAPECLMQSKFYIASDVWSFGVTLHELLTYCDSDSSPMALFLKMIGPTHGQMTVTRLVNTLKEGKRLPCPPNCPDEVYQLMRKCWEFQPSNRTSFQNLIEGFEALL

The target of one assay is JAK2 (recombinant purified GST-tagged catalytic domain) (Homo sapiens (Human), UniProt O60674). In words: biochemical.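 Also: biochemical JAK kinase assay with HTRF detection.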
In the case of `CC(C)(C)OC(=O)[C@H]1CCC(n2cc(C(N)=O)c(Nc3ccc(F)cc3)n2)[C@@H](C#N)C1` (mixture of isomers) [Example 7-1, tert-Butyl (1S,3S,4S and 1R,3R,4R)-4-{4-carbamoyl-3-[(4-fluorophenyl)amino]-1H-pyrazol-1-yl}-3-cyanocyclohexanecarboxylate], the pIC50 is 6.33.
As to `N#C[C@@H]1CC2(CCC1n1cc(C(N)=O)c(Nc3ccnc(F)c3)n1)CC2` (mixture of isomers) [Example 11-7, 1-((5R,6R and 5S,6S)-5-cyanospiro[2.5]octan-6-yl)-3-((2-fluoropyridin-4-yl)amino)-1H-pyrazole-4-carboxamide], the pIC50 is 7.72.
On to `N#C[C@H]1C[C@H](O)CCC1n1cc(C(N)=O)c(Nc2ccnc(F)c2)n1` (mixture of isomers) [Example 15, 1-[(1S,2S,4R and 1R,2R,4S)-2-Cyano-4-hydroxycyclohexyl]-3-[(2-fluoropyridin-4-yl)amino]-1H-pyrazole-4-carboxamide], for which the negative logarithm of the IC50 (pIC50) is 7.34.
As for `N#C[C@H]1CCCCC1n1cc(C(N)=O)c(Nc2ccc(S(=O)(=O)CC(F)(F)F)cc2)n1` (mixture of isomers) [Example 17-12, 1-[(1S,2S and 1R,2R)-2-cyanocyclohexyl]-3-({4-[(2,2,2-trifluoroethyl)sulfonyl]phenyl}amino)-1H-pyrazole-4-carboxamide], the pIC50 was 8.30.
Same read-out and setting: the value for `N#C[C@@H]1CCCC[C@@H]1n1cc(C(N)=O)c(Nc2ccc(F)nc2)n1` (racemic) [Example 17-24, 1-[(1S,2R and 1R,2S)-2-cyanocyclohexyl]-3-[(6-fluoropyridin-3-yl)amino]-1H-pyrazole-4-carboxamide] was 7.12; that for `CNC1CCC(n2cc(C(N)=O)c(Nc3ccc(S(=O)(=O)C(F)(F)F)cc3)n2)[C@@H](C#N)C1` (mixture of isomers) [Example 27-6, 1-[(1S,2S and 1R,2R)-2-cyano-4-(methylamino)cyclohexyl]-3-({4-[(trifluoromethyl)sulfonyl]phenyl}amino)-1H-pyrazole-4-carboxamide] was 8.30.
Same read-out and setting: with `CN[C@H]1CCC(n2cc(C(N)=O)c(Nc3ccc(S(=O)(=O)C(F)(F)F)cc3)n2)[C@@H](C#N)C1` (mixture of isomers) [Example 27-9, 1-[(1S,2S,4S and 1R,2R,4R)-2-cyano-4-(methylamino)cyclohexyl]-3-({4-[(trifluoromethyl)sulfonyl]phenyl}amino)-1H-pyrazole-4-carboxamide] the figure was 7.29.
The same measure, in the same setting: the value for `N#C[C@H]1CC(NCCO)CCC1n1cc(C(N)=O)c(Nc2ccc(S(=O)(=O)C(F)(F)F)cc2)n1` (mixture of isomers) [Example 27-15, 1-{(1S,2S and 1R,2R)-2-cyano-4-[(2-hydroxyethyl)amino]cyclohexyl}-3-({4-[(trifluoromethyl)sulfonyl]phenyl)amino)-l/f-pyrazolc-4-carboxamide] was 7.96; that for `CC(C)NC(=O)O[C@@H]1CCC(n2cc(C(N)=O)c(Nc3ccc(F)cc3)n2)[C@@H](C#N)C1` (mixture of isomers) [Example 34-4, (1R,3S,4S and 1S,3R,4R)-4-{4-carbamoyl-3-[(4-fluorophenyl)amino]-1H-pyrazol-1-yl}-3-cyanocyclohexyl propan-2-ylcarbamate] was 7.72; that for `CC(C)NC(=O)O[C@H]1CCC(n2cc(C(N)=O)c(Nc3ccc(F)cc3)n2)[C@@H](C#N)C1` (mixture of isomers) [Example 34-8, (1S,3S,4S and 1R,3R,4R)-4-{4-carbamoyl-3-[(4-fluorophenyl)amino]-1H-pyrazol-1-yl}-3-cyanocyclohexyl propan-2-ylcarbamate] was 7.03.
With `N#C[C@H]1CCCC[C@@H]1n1cc(C(N)=O)c(Nc2ccc(F)nc2)n1` (single isomer, unassigned) [Example 17-19, 1-[(1S,2S or 1R,2R)-2-cyanocyclohexyl]-3-[(6-fluoropyridin-3-yl)amino]-1H-pyrazole-4-carboxamide], the pIC50 was 7.74.
Take `N#C[C@@H]1CCCC[C@H]1n1cc(C(N)=O)c(Nc2ccc(F)nc2)n1` (single isomer, unassigned) [Example 17-23, 1-[(1R,2R or 1S,2S)-2-cyanocyclohexyl]-3-[(6-fluoropyridin-3-yl)amino]-1H-pyrazole-4-carboxamide]: the pIC50 was 7.26.
Take `CC(=O)c1ccc(Nc2nn([C@H]3CCCC[C@@H]3C#N)cc2C(N)=O)cc1` (single isomer, unassigned) [Example 17-27, 3-[(4-acetylphenyl)amino]-1-[(1S,2S or 1R,2R)-2-cyanocyclohexyl]-1H-pyrazole-4-carboxamide]: the pIC50 was 8.70.
Turning to `C[C@](O)(c1ccc(Nc2nn([C@H]3CCCC[C@@H]3C#N)cc2C(N)=O)cn1)C(F)(F)F` (single isomer, unassigned) [Example 17-34, 1-[(1S,2S or 1R,2R)-2-cyanocyclohexyl]-3-({6-[(1S or 1R)-2,2,2-trifluoro-1-hydroxy-1-methylethyl]pyridin-3-yl}amino)-1H-pyrazole-4-carboxamide], the pIC50 is 7.96.

A further assay addresses JAK1 (recombinant purified GST-tagged catalytic domain) (Homo sapiens (Human), UniProt P23458). In words: biochemical.
For `CN([C@H]1CCC(n2cc(C(N)=O)c(Nc3ccc(Cl)cc3)n2)[C@@H](C#N)C1)C1(C)COC1` (single isomer, unassigned) [Example 28-232, 3-[(4-chlorophenyl)amino]-1-{(1S,2S,4S or 1R,2R,4R)-2-cyano-4-[methyl(3-methyloxetan-3-yl)amino]cyclohexyl}-1H-pyrazole-4-carboxamide], the pIC50 is 9.19.
Same read-out and setting: with `CN(CC(F)(F)F)[C@H]1CCC(n2cc(C(N)=O)c(Nc3ccnc(F)c3)n2)[C@@H](C#N)C1` (single isomer, unassigned) [Example 28-233, 1-{(1S,2S,4S or 1R,2R,4R)-2-cyano-4-[methyl(2,2,2-trifluoroethyl)amino]cyclo-hexyl}-3-[(2-fluoropyridin-4-yl)amino]-1 H-pyrazole-4-carboxamide] the figure was 9.00; with `CC1(N[C@H]2CCC(n3cc(C(N)=O)c(Nc4ccc(Cl)cc4)n3)[C@@H](C#N)C2)CCOCC1` (single isomer, unassigned) [Example 28-235, 3-[(4-chlorophenyl)amino]-1-{(1S,2S,4S or 1R,2R,4R)-2-cyano-4-[(4-methyltetrahydro-2H-pyran-4-yl)amino]cyclohexyl}-1H-pyrazole-4-carboxamide], 9.07; with `CN(CC1CC1)[C@@H]1CC[C@H](n2cc(C(N)=O)c(Nc3ccc(C(F)(F)F)cc3)n2)[C@@H](C#N)C1` (single isomer, unassigned) [Example 30-2, 1-{(1S,2S,4R or 1R,2R,4S)-2-cyano-4-[(cyclopropyl-methyl)(methyl)amino]cyclo-hexyl}-3-{[4-(trifluoromethyl)phenyl]amino}-1H-pyrazole-4-carboxamide], 8.40.
Turning to `CC(C)CN[C@H]1CC[C@@H](n2cc(C(N)=O)c(Nc3ccc(C(F)(F)F)cc3)n2)[C@H](C#N)C1` (single isomer, unassigned) [Example 30-7, 1-{(1R,2R,4S or 1S,2S,4R)-2-cyano-4-[(2-methyl-propyl)amino]cyclohexyl}-3-{[4-(trifluoro-methyl)phenyl]amino}-1H-pyrazole-4-carboxamide], the pIC50 is 8.22.
`N#C[C@H]1C[C@H](NCc2c(F)cccc2F)CC[C@@H]1n1cc(C(N)=O)c(Nc2ccc(C(F)(F)F)cc2)n1` (single isomer, unassigned) [Example 30-13, 1-{(1S,2S,4R or 1R,2R,4S)-2-cyano-4-[(2,6-difluoro-benzyl)amino]cyclohexyl}-3-{[4-(trifluoromethyl)phenyl]amino}-1H-pyrazole-4-carboxamide]: the negative logarithm of the IC50 (pIC50) is 7.96.
Turning to `N#C[C@H]1C[C@@H](O)CC[C@@H]1n1cc(C(N)=O)c(Nc2ccc(Cl)nc2)n1` (single isomer, unassigned) [Example 33-14, 3-[(6-chloropyridin-3-yl)amino]-1-[(1S,2S,4S or 1R,2R,4R)-2-cyano-4-hydroxycyclohexyl]-1H-pyrazole-4-carboxamide], the pIC50 is 8.40.
In the case of `N#C[C@@H]1C[C@H](C(=O)NC2CCC2)CC[C@H]1n1cc(C(N)=O)c(Nc2ccc(Cl)cc2)n1` (single isomer, unassigned) [Example 35-11, 3-[(4-chlorophenyl)amino]-1-[(1R,2R,4R or 1S,2S,4S)-2-cyano-4-(cyclobutylcarbamoyl)cyclohexyl]-1H-pyrazole-4-carboxamide], the negative-log IC50 (pIC50) is 8.00.
Turning to `N#C[C@H]1C[C@@H](C(=O)NC2CCC2)CC[C@@H]1n1cc(C(N)=O)c(Nc2ccc(Cl)cc2)n1` (single isomer, unassigned) [Example 35-12, 3-[(4-chlorophenyl)amino]-1-[(1S,2S,4S or 1R,2R,4R)-2-cyano-4-(cyclobutylcarbamoyl)cyclohexyl]-1H-pyrazole-4-carboxamide], the pIC50 is 7.70.
Turning to `N#C[C@@H]1CCCC[C@H]1n1cc(C(N)=O)c(Nc2ccc(S(=O)(=O)C(F)F)cc2)n1` (single isomer, unassigned) [Example 43-5, 1-[(1S,2S or 1R,2R)-2-cyanocyclohexyl]-3-({4-[(difluoromethyl)sulfonyl]phenyl}amino)-1H-pyrazole-4-carboxamide], the pIC50 was 8.52.
`N#C[C@@H]1CCCC[C@H]1n1cc(C(N)=O)c(Nc2ccc(S(=O)(=O)C(F)F)cc2)n1` (single isomer, unassigned) [Example 43-6, 1-[(1S,2S or 1R,2R)-2-cyanocyclohexyl]-3-({4-[(difluoromethyl)sulfonyl]phenyl}amino)-1H-pyrazole-4-carboxamide]: the negative-log IC50 (pIC50) was 9.52.
For the compound `CC(C)(C)OC(=O)N[C@@H]1CC[C@H](C#N)C(n2cc(C(N)=O)c(Nc3ccc(F)cc3)n2)C1` (single isomer, unassigned) [Example 44-1, tert-Butyl[(1R,3S,4S or 1S,3R,4R)-3-{4-carbamoyl-3-[(4-fluorophenyl)amino]-1H-pyrazol-1-yl}-4-cyanocyclohexyl]carbamate], the pIC50 was 8.70.
For `CC(C)(C)OC(=O)N[C@@H]1CC[C@H](C#N)C(n2cc(C(N)=O)c(Nc3ccc(F)cc3)n2)C1` (single isomer, unassigned) [Example 44-2, tert-Butyl[(1R,3S,4S or 1S,3R,4R)-3-{4-carbamoyl-3-[(4-fluorophenyl)amino]-1H-pyrazol-1-yl}-4-cyanocyclohexyl]carbamate], the pIC50 was 7.52.

As usually defined, the pIC50 is −log10 of the IC50, conventionally taken in molar units.
